Test results as given in patent US10179769B2, “Histone demethylase inhibitors” (CELGENE QUANTICEL RESEARCH, INC., priority 2012, dated 2019).

What follows are compounds tested on KYSE-150 esophageal carcinoma cell line (assay: Cell proliferation assay, BrdU incorporation ELISA). Details: Homo sapiens; KYSE-150, BrdU incorporation after 168 hr compound incubation; read-out: Cellular IC50.
Assay type: cell-based, human

`N#Cc1ccc(CNc2cnccc2C(=O)O)cc1` [Example 5, 3-[(4-cyanobenzyl)amino]pyridine-4-carboxylic acid] and `O=C(O)c1ccncc1NCc1ccc(Cl)cc1` [Example 10, 3-[(4-chlorobenzyl)amino]pyridine-4-carboxylic acid] cannot be ordered by IC50: over 10 µM for the first, over 10 µM for the second.

`O=C(O)c1ccncc1NCc1ccc(Cl)c(Cl)c1` [Example 14, 3-[(3,4-dichlorobenzyl)amino]pyridine-4-carboxylic acid] and `O=C(O)c1ccncc1NCc1ccc(Cl)cc1Cl` [Example 18, 3-[(2,4-dichlorobenzyl)amino]pyridine-4-carboxylic acid] cannot be ordered by IC50: over 10 µM for the first, over 10 µM for the second.

`Cc1cc(Cl)ccc1CNc1cnccc1C(=O)O` [Example 15, 3-[(4-chloro-2-methylbenzyl)amino]pyridine-4-carboxylic acid] and `O=C(O)c1ccncc1NCc1ccc(Cl)cc1C1CC1` [Example 26, 3-[(4-chloro-2-cyclopropylbenzyl)amino] pyridine-4-carboxylic acid] cannot be ordered by IC50: over 10 µM for the first, over 10 µM for the second.

`COc1ccc(CNc2cnccc2C(=O)O)c(OC)c1` [Example 16, 3-[(2,4-dimethyoxybenzyl)amino]pyridine-4-carboxylic acid] and `Cc1ccc(CNc2cnccc2C(=O)O)o1` [Example 40, 3-{[(5-methylfuran-2-yl)methyl]amino} pyridine-4-carboxylic acid] cannot be ordered by IC50: over 10 µM for the first, over 10 µM for the second.

`O=C(O)c1ccncc1NCc1ccccc1O` [Example 17, 3-[(2-hydroxybenzyl)amino]pyridine-4-carboxylic acid] and `O=C(O)c1ccncc1NCc1ccccc1C1CC1` [Example 19, 3-[(2-cyclopropylbenzyl)amino]pyridine-4-carboxylic acid] cannot be ordered by IC50: over 10 µM for the first, over 10 µM for the second.

`O=C(O)c1ccncc1NCc1ccc(Br)cc1` [Example 23, 3-[(4-bromobenzyl)amino]pyridine-4-carboxylic acid] and `O=C(O)c1ccncc1NCc1ccc(C2CC2)cc1` [Example 25, 3-[(4-cyclopropylbenzyl)amino]pyridine-4-carboxylic acid] cannot be ordered by IC50: over 10 µM for the first, over 10 µM for the second.

`O=C(O)c1ccncc1NCc1cccc2ccccc12` [Example 28, 3-[(naphthalene-1-ylmethyl)amino]pyridine-4-carboxylic acid] and `O=C(O)c1ccncc1NCc1coc2ccccc12` [Example 38, 3-[(1-benzofuran-3-ylmethyl)amino] pyridine-4-carboxylic acid] cannot be ordered by IC50: over 10 µM for the first, over 10 µM for the second.

`Cc1cccc(CNc2cnccc2C(=O)O)c1C1CC1` [Example 30, 3-[(2-cyclopropyl-3-methylbenzyl)amino] pyridine-4-carboxylic acid] and `Cc1ccc(CNc2cnccc2C(=O)O)s1` [Example 39, 3-{[(5-methylthiophen-2-yl)methyl]amino} pyridine-4-carboxylic acid] cannot be ordered by IC50: over 10 µM for the first, over 10 µM for the second.

`O=C(O)c1ccncc1NCc1cc2ccccc2o1` [Example 41, 3-[(1-benzofuran-2-ylmethyl)amino] pyridine-4-carboxylic acid] and `O=C(O)c1ccncc1NCC1CCc2ccccc21` (stereo not shown) [Example 45] cannot be ordered by IC50: over 10 µM for the first, over 10 µM for the second.

First: O=C(O)c1ccncc1NCC12CC3CC(CC(C3)C1)C2 [Example 42, 3-[(adamantan-1-ylmethyl)amino]pyridine-4-carboxylic acid]
Second: O=C(O)c1ccncc1NCC1CCCc2ccccc21 (stereo not shown) [Example 46, 3-[(1,2,3,4-tetrahydronaphthalen-1-yl-methyl)amino]-pyridine-4-carboxylic acid]
The IC50 of the first is higher: over 10 µM for the first, 1 to 10 µM for the second.

With `O=C(O)c1ccncc1NC[C@H]1CCCc2ccccc21` [Example 47, 3-{[(1S)-1,2,3,4-tetrahydronaphthalen-1-yl-methyl]amino}-pyridine-4-carboxylic acid] the IC50 was 1 to 10 µM.

Same assay, conditions: KYSE-150, BrdU incorporation after 168 hr compound incubation; read-out: Cellular IC50

Compound “3-{[(6-chloro-1-hydroxy-1,2,3,4- tetrahydronaphthalen-1-yl)methyl]amino} pyridine-4-carboxylic acid [Example 67]” has an IC50 of 1 to 10 µM.
